## Antibody variant affinities, Ab-91 heavy chain, assay 2

Binding partner: SARS-CoV-2 spike HR2 peptide, sequence PDVDLGDISGINAS.

Parent scFv Ab-91: VL joined to VH by a (GGGGS)3 linker. Changes lie in the heavy chain CDRs alone.
VL: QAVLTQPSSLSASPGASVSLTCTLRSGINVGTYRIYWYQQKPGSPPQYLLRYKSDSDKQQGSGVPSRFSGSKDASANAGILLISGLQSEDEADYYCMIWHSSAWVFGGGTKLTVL
VH: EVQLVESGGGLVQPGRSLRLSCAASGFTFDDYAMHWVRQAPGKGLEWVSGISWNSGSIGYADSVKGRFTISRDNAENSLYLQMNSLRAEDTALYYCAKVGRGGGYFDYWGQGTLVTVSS

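The parent was found by panning a naive human phage display library on the peptide. Library AAYL51 holds single substitutions and randomly drawn double and triple substitutions in the CDRs. In AlphaSeq, yeast of one mating type display the scFv and yeast of the other type display the target. Pairs that bind mate more often; barcode pairs of the diploids are counted by sequencing. A regression on co-assayed BCL2-family reference pairs converts the normalised counts of each replicate to an apparent Kd. Mating was done three times.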

Substitutions are numbered in sequence along the VH above, starting at 1 (not Kabat).
Affinities are written as log10 Kd with Kd in nM; a lower number is a better binder.
Averages over replicates are reported, and they cover detected replicates only.
A pair that was not seen in that replicate is written "n.d."; this usually means weak binding, but a binder can also be missed.
Background: pairings of library AAYL51 with three empty control strains gave a value in 21% of cases (median 4.54, 5th percentile 3.26). Values in that range, when seen in few replicates, are hard to tell from nonspecific mating. Also given: how often the same scFv was detected with the empty control strains, with their mean in brackets.

changes | log10 Kd (nM) by replicate | mean log10 Kd (nM) | control signals
F27T+G100T | n.d. / n.d. / n.d. | n.d. | 0 of 9
V99N+D107H | 5.86 / n.d. / n.d. | 5.86 | 2 of 9 (3.99)
D30A+K65Q | n.d. / n.d. / n.d. | n.d. | 0 of 9
F29K+D31H+N54W | n.d. / n.d. / n.d. | n.d. | 1 of 9 (2.96)
S55A+K65R+D107W | 4.00 / n.d. / n.d. | 4.00 | 1 of 9 (4.57)
Y60F+A61F+F106A | n.d. / n.d. / n.d. | n.d. | 1 of 9 (2.69)
D30E+I58K+G103S | 4.55 / 4.07 / 3.13 | 3.92 | 1 of 9 (3.62)
F27Y+H35K+D107E | 4.10 / 3.85 / n.d. | 3.98 | 3 of 9 (3.59)
Y32F+S57G+D107F | 2.99 / 2.65 / 2.95 | 2.86 | 4 of 9 (4.42)
H35I+I58R+Y108N | 4.86 / 6.14 / 4.96 | 5.32 | 3 of 9 (4.03)
S52P+I58K+Y105S | n.d. / n.d. / n.d. | n.d. | 2 of 9 (4.45)
H35E+S55M+Y60N | 3.79 / n.d. / 4.14 | 3.97 | 5 of 9 (4.69)
N54S+G100Q | 3.75 / n.d. / n.d. | 3.75 | 2 of 9 (4.62)
F27S+D31F | 2.92 / n.d. / n.d. | 2.92 | 1 of 9 (3.50)
H35K+R101L+G103K | 4.09 / n.d. / n.d. | 4.09 | 1 of 9 (4.66)
G59L+G104L | n.d. / 4.17 / 4.36 | 4.26 | 7 of 9 (4.59)
S55T+Y60M+D62R | n.d. / n.d. / n.d. | n.d. | 0 of 9
D31A+G103K+Y105F | 3.70 / 2.86 / n.d. | 3.28 | 2 of 9 (4.88)
F29L+G50R+G102H | 4.54 / n.d. / 4.24 | 4.39 | 4 of 9 (4.65)
F29K+G56P+D107I | n.d. / n.d. / n.d. | n.d. | 0 of 9
Y32A+D62H+G103Y | n.d. / n.d. / n.d. | n.d. | 0 of 9
D30T+A33W | n.d. / n.d. / n.d. | n.d. | 0 of 9
I51L+Y60E+D62A | n.d. / 5.78 / n.d. | 5.78 | 4 of 9 (3.83)
H35K+D62T+K65Q | n.d. / n.d. / n.d. | n.d. | 1 of 9 (5.14)
D30E+A33I | 1.71 / 1.40 / 0.99 | 1.37 | 1 of 9 (3.41)
T28H+Y32P+H35V | n.d. / 4.52 / n.d. | 4.52 | 1 of 9 (4.89)
A33R+Y60T+Y105C | 3.96 / n.d. / 5.40 | 4.68 | 1 of 9 (4.26)
F29Q+D30T+H35M | n.d. / n.d. / n.d. | n.d. | 0 of 9
A61N+R101I+G103H | n.d. / n.d. / n.d. | n.d. | 0 of 9
N54E+D62T+G104H | 3.54 / n.d. / 3.76 | 3.65 | 0 of 9
G26H+G56W+F106A | n.d. / n.d. / n.d. | n.d. | 1 of 9 (3.83)
S52P+Y60C+G100D | n.d. / n.d. / n.d. | n.d. | 4 of 9 (4.92)
S52C+G102V | n.d. / n.d. / n.d. | n.d. | 1 of 9 (4.26)
S52G+I58L | n.d. / n.d. / n.d. | n.d. | 1 of 9 (3.85)
D31L | 0.49 / 0.51 / -0.29 | 0.24 | 9 of 9 (5.39)
G26P+D30N+G56P | n.d. / n.d. / n.d. | n.d. | 1 of 9 (4.75)
G26R+S52F+Y60G | 3.68 / 4.68 / 4.42 | 4.26 | 5 of 9 (4.34)
A33W+G56Q+G102L | n.d. / n.d. / n.d. | n.d. | 2 of 9 (4.52)
G56M+G59P+R101S | n.d. / n.d. / n.d. | n.d. | 1 of 9 (3.96)
G50C+I58F | n.d. / n.d. / n.d. | n.d. | 0 of 9
F29G+M34D+R101M | 4.58 / 5.66 / 3.85 | 4.70 | 3 of 9 (4.07)
G56A+S57T+Y60W | n.d. / 5.38 / n.d. | 5.38 | 2 of 9 (4.48)
S52D+G56R+I58Y | 4.28 / 4.19 / n.d. | 4.24 | 5 of 9 (5.06)
W53M+S57W+Y60M | n.d. / n.d. / n.d. | n.d. | 1 of 9 (3.51)
N54Q+D62F+K65F | 4.35 / n.d. / n.d. | 4.35 | 0 of 9
H35D+V99H+F106L | 3.49 / n.d. / n.d. | 3.49 | 3 of 9 (3.90)
S52A+R101H+G102K | n.d. / n.d. / n.d. | n.d. | 0 of 9
S52P+V99I+Y108A | n.d. / n.d. / 4.08 | 4.08 | 4 of 9 (3.54)
M34L+R101I+F106E | 2.83 / 2.40 / 3.25 | 2.83 | 0 of 9

Repeated from above, the 6 best binders with a signal in all replicates:

changes,log10 Kd (nM) by replicate,mean log10 Kd (nM),control signals
D31L,0.49 / 0.51 / -0.29,0.24,9 of 9 (5.39)
D30E+A33I,1.71 / 1.40 / 0.99,1.37,1 of 9 (3.41)
M34L+R101I+F106E,2.83 / 2.40 / 3.25,2.83,0 of 9
Y32F+S57G+D107F,2.99 / 2.65 / 2.95,2.86,4 of 9 (4.42)
D30E+I58K+G103S,4.55 / 4.07 / 3.13,3.92,1 of 9 (3.62)
G26R+S52F+Y60G,3.68 / 4.68 / 4.42,4.26,5 of 9 (4.34)

From the AlphaSeq antibody data of Engelhart et al. 2022 (doi:10.1038/s41597-022-01779-4), copy in the FLAb collection.